According to PubChem BioAssay (NCI):
Some results for these compounds are left out of this collection, so the calls shown say nothing about other tests.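 Cells were grown in 96-well plates and exposed to each compound for 48 hours at five concentrations; endpoints were interpolated linearly between bracketing concentrations, or set to the highest concentration if not reached. Abbreviation: GI50, concentration required for 50% inhibition of growth. Definition used: TGI = concentration required for complete inhibition of growth.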

Columns and labels:
Assay in all cases: NCI-60 cell line screen, 48 h
NCI-H226 lung = tested on: NCI-H226 lung
EKVX NSCLC = tested on: EKVX NSCLC
K-562 leukemia = tested on: K-562 leukemia
SK-MEL-2 melanoma = tested on: SK-MEL-2 melanoma
M14 melanoma = tested on: M14 melanoma
OVCAR-3 ovarian = tested on: OVCAR-3 ovarian
HT29 colon = tested on: HT29 colon
U251 CNS = tested on: U251 CNS
UACC-62 melanoma = tested on: UACC-62 melanoma
KM12 colon = tested on: KM12 colon
OVCAR-4 ovarian = tested on: OVCAR-4 ovarian
BT-549 breast = tested on: BT-549 breast
MOLT-4 leukemia = tested on: MOLT-4 leukemia
NCI-H460 lung = tested on: NCI-H460 lung
COLO 205 colon = tested on: COLO 205 colon
IGROV1 ovarian = tested on: IGROV1 ovarian
PC-3 prostate = tested on: PC-3 prostate
SF-268 CNS = tested on: SF-268 CNS
HS 578T breast = tested on: HS 578T breast
786-0 renal = tested on: 786-0 renal
DU-145 prostate = tested on: DU-145 prostate
SF-539 CNS = tested on: SF-539 CNS
UO-31 renal = tested on: UO-31 renal
NCI/ADR-RES ovarian = tested on: NCI/ADR-RES ovarian
SK-MEL-5 melanoma = tested on: SK-MEL-5 melanoma
SNB-19 CNS = tested on: SNB-19 CNS
OVCAR-8 ovarian = tested on: OVCAR-8 ovarian
SN12C renal = tested on: SN12C renal
SNB-75 CNS = tested on: SNB-75 CNS
T-47D breast = tested on: T-47D breast
RPMI-8226 leukemia = tested on: RPMI-8226 leukemia
SF-295 CNS = tested on: SF-295 CNS
CAKI-1 renal = tested on: CAKI-1 renal
SK-OV-3 ovarian = tested on: SK-OV-3 ovarian
UACC-257 melanoma = tested on: UACC-257 melanoma
SW-620 colon = tested on: SW-620 colon
A498 renal = tested on: A498 renal
HCT-116 colon = tested on: HCT-116 colon
OVCAR-5 ovarian = tested on: OVCAR-5 ovarian
TK-10 renal = tested on: TK-10 renal
ACHN renal = tested on: ACHN renal
CCRF-CEM leukemia = tested on: CCRF-CEM leukemia
SK-MEL-28 melanoma = tested on: SK-MEL-28 melanoma
MALME-3M melanoma = tested on: MALME-3M melanoma
NCI-H23 lung = tested on: NCI-H23 lung
HCC-2998 colon = tested on: HCC-2998 colon
HOP-62 NSCLC = tested on: HOP-62 NSCLC
MCF7 breast = tested on: MCF7 breast
MDA-N = tested on: MDA-N
MDA-MB-231 breast = tested on: MDA-MB-231 breast
RXF 393 renal = tested on: RXF 393 renal
MDA-MB-435 = tested on: MDA-MB-435
HOP-92 NSCLC = tested on: HOP-92 NSCLC
LOX IMVI melanoma = tested on: LOX IMVI melanoma
HCT-15 colon = tested on: HCT-15 colon
SR leukemia = tested on: SR leukemia
A549 NSCLC = tested on: A549 NSCLC

SMILES: CCCC#CC(O)(C(=O)OC1CN2CCC1CC2)C1CCCC1 (centres undefined)
- GI50 (NCI-H226 lung): > 100 µM
- TGI (NCI-H226 lung): > 100 µM
- GI50 (EKVX NSCLC): > 100 µM
- TGI (EKVX NSCLC): > 100 µM
- GI50 (K-562 leukemia): > 100 µM
- TGI (K-562 leukemia): > 100 µM
- GI50 (SK-MEL-2 melanoma): > 100 µM
- TGI (SK-MEL-2 melanoma): > 100 µM
- GI50 (M14 melanoma): > 100 µM
- TGI (M14 melanoma): > 100 µM
- GI50 (OVCAR-3 ovarian): > 100 µM
- TGI (OVCAR-3 ovarian): > 100 µM
- GI50 (HT29 colon): > 100 µM
- TGI (HT29 colon): > 100 µM
- GI50 (U251 CNS): > 100 µM
- TGI (U251 CNS): > 100 µM
- GI50 (UACC-62 melanoma): > 100 µM
- TGI (UACC-62 melanoma): > 100 µM
- GI50 (KM12 colon): > 100 µM
- TGI (KM12 colon): > 100 µM
- GI50 (OVCAR-4 ovarian): > 100 µM
- TGI (OVCAR-4 ovarian): > 100 µM
- GI50 (BT-549 breast): > 100 µM
- TGI (BT-549 breast): > 100 µM
- GI50 (MOLT-4 leukemia): > 100 µM
- TGI (MOLT-4 leukemia): > 100 µM
- GI50 (NCI-H460 lung): > 100 µM
- TGI (NCI-H460 lung): > 100 µM
- GI50 (COLO 205 colon): > 100 µM
- TGI (COLO 205 colon): > 100 µM
- GI50 (IGROV1 ovarian): > 100 µM
- TGI (IGROV1 ovarian): > 100 µM
- GI50 (PC-3 prostate): > 100 µM
- TGI (PC-3 prostate): > 100 µM
- GI50 (SF-268 CNS): > 100 µM
- TGI (SF-268 CNS): > 100 µM
- GI50 (HS 578T breast): > 100 µM
- TGI (HS 578T breast): > 100 µM
- GI50 (786-0 renal): > 100 µM
- TGI (786-0 renal): > 100 µM
- GI50 (DU-145 prostate): > 100 µM
- TGI (DU-145 prostate): > 100 µM
- GI50 (SF-539 CNS): > 100 µM
- TGI (SF-539 CNS): > 100 µM
- GI50 (UO-31 renal): > 100 µM
- TGI (UO-31 renal): > 100 µM
- GI50 (NCI/ADR-RES ovarian): > 100 µM
- TGI (NCI/ADR-RES ovarian): > 100 µM
- GI50 (SK-MEL-5 melanoma): > 100 µM
- TGI (SK-MEL-5 melanoma): > 100 µM
- GI50 (SNB-19 CNS): > 100 µM
- TGI (SNB-19 CNS): > 100 µM
- GI50 (OVCAR-8 ovarian): > 100 µM
- TGI (OVCAR-8 ovarian): > 100 µM
- GI50 (SN12C renal): > 100 µM
- TGI (SN12C renal): > 100 µM
- GI50 (SNB-75 CNS): 93.8 µM
- TGI (SNB-75 CNS): > 100 µM
- GI50 (T-47D breast): > 100 µM
- TGI (T-47D breast): > 100 µM
- GI50 (RPMI-8226 leukemia): > 100 µM
- TGI (RPMI-8226 leukemia): > 100 µM
- GI50 (SF-295 CNS): > 100 µM
- TGI (SF-295 CNS): > 100 µM
- GI50 (CAKI-1 renal): > 100 µM
- TGI (CAKI-1 renal): > 100 µM
- GI50 (SK-OV-3 ovarian): > 100 µM
- TGI (SK-OV-3 ovarian): > 100 µM
- GI50 (UACC-257 melanoma): > 100 µM
- TGI (UACC-257 melanoma): > 100 µM
- GI50 (SW-620 colon): > 100 µM
- TGI (SW-620 colon): > 100 µM
- GI50 (A498 renal): > 100 µM
- TGI (A498 renal): > 100 µM
- GI50 (HCT-116 colon): > 100 µM
- TGI (HCT-116 colon): > 100 µM
- GI50 (OVCAR-5 ovarian): > 100 µM
- TGI (OVCAR-5 ovarian): > 100 µM
- GI50 (TK-10 renal): > 100 µM
- TGI (TK-10 renal): > 100 µM
- GI50 (ACHN renal): > 100 µM
- TGI (ACHN renal): > 100 µM
- GI50 (CCRF-CEM leukemia): > 100 µM
- TGI (CCRF-CEM leukemia): > 100 µM
- GI50 (SK-MEL-28 melanoma): > 100 µM
- TGI (SK-MEL-28 melanoma): > 100 µM
- GI50 (MALME-3M melanoma): > 100 µM
- TGI (MALME-3M melanoma): > 100 µM
- GI50 (NCI-H23 lung): > 100 µM
- TGI (NCI-H23 lung): > 100 µM
- GI50 (HCC-2998 colon): > 100 µM
- TGI (HCC-2998 colon): > 100 µM
- GI50 (HOP-62 NSCLC): > 100 µM
- TGI (HOP-62 NSCLC): > 100 µM
- GI50 (MCF7 breast): > 100 µM
- TGI (MCF7 breast): > 100 µM
- GI50 (MDA-N): > 100 µM
- TGI (MDA-N): > 100 µM
- GI50 (MDA-MB-231 breast): > 100 µM
- TGI (MDA-MB-231 breast): > 100 µM
- GI50 (RXF 393 renal): > 100 µM
- TGI (RXF 393 renal): > 100 µM
- GI50 (MDA-MB-435): > 100 µM
- TGI (MDA-MB-435): > 100 µM
- GI50 (HOP-92 NSCLC): > 100 µM
- TGI (HOP-92 NSCLC): > 100 µM
- GI50 (LOX IMVI melanoma): > 100 µM
- TGI (LOX IMVI melanoma): > 100 µM
- GI50 (HCT-15 colon): > 100 µM
- TGI (HCT-15 colon): > 100 µM
- GI50 (SR leukemia): > 100 µM
- TGI (SR leukemia): > 100 µM
- GI50 (A549 NSCLC): > 100 µM
- TGI (A549 NSCLC): > 100 µM
